Measured values reported in paper PMC6516834, “Tight bending of the Ndc80 complex provides intrinsic regulation of its binding to microtubules” (eLife, 2019).

Target: T1, Broccoli-GFP (shortened dimeric construct, Ndc80 1-556 / Nuf2 1-339 with GFP fused C-terminally to Nuf2) (S. cerevisiae, UniProt P40460 1-556; P33895 1-339)
T1 construct: Ndc80, S. cerevisiae, residues 1-556 (C-terminus removed); Nuf2, S. cerevisiae, residues 1-339 (C-terminus removed); also called His6-Ndc80/Nuf2-GFP; Ndc80/Nuf2; source: E. coli BL21, purified (Ni-charged IMAC resin, size exclusion chromatography); not shown: GFP, C-terminal, kept
T1 sequence (looked up) 1: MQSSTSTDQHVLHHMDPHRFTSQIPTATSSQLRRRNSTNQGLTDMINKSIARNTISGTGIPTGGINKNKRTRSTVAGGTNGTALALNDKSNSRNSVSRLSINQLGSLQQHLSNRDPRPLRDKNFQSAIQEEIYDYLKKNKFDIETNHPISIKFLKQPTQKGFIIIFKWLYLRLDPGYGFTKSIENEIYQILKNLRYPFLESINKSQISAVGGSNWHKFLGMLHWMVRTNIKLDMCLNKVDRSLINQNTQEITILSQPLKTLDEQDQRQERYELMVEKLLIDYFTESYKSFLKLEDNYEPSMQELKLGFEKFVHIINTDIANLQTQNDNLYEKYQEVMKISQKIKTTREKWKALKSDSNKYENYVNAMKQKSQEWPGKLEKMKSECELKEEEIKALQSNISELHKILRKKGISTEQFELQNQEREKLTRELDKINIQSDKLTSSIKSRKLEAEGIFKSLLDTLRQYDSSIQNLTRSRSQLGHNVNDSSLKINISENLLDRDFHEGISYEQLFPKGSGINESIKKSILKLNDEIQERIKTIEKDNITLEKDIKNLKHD
T1 sequence (looked up) 2: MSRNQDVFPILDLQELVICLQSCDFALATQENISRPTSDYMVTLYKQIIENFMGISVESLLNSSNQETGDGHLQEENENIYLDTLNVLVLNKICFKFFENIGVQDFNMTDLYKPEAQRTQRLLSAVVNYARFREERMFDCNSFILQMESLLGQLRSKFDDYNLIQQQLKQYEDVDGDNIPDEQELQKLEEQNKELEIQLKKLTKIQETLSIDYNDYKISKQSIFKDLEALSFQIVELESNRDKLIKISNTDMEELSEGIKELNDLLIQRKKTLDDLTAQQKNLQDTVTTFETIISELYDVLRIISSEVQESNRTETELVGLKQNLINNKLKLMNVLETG
Assay: single molecule TIRF microscopy (residence time on microtubules); as a1, with free Spc24/Spc25 dimer (wild type or mutant) added in trans: sixtyfold excess over Broccoli-GFP, tenfold excess over Ndc80-MIND-GFP
Settings: both partners purified

B1: free Spc24/Spc25 dimer (complex, S. cerevisiae)
chain 1: MSQKDNLLDNPVEFLKEVRESFDIQQDVDAMKRIRHDLDVIKEESEARISKEHSKVSESNKKLNAERINVAKLEGDLEYTNEESNEFGSKDELVKLLKDLDGLERNIVSLRSELDEKMKLYLKDSEIISTPNGSKIKAKVIEPELEEQSAVTPEANENILKLKLYRSLGVILDLENDQVLINRKNDGNIDILPLDNNLSDFYKTKYIWERLGK
chain 2: MASIDAFSDLERRMDGFQKDVAQVLARQQNHARQQLQQFQAEMRQLHNQHQHLIDELQRLATQRTALQQQIHAAQQATNTTREQWRSYHERESELSRRQSTLAAQSRELDSLLQQRGKECVQLRARWAAQSGNDAAEVALYERLLQLRVLPGASDVHDVRFVFGDDSRCWIEVAMHGDHVIGNSHPALDPKSRATLEHVLTVQGDLAAFLVVARDMLLASL
notes: Spc24, S. cerevisiae; Spc25, S. cerevisiae; also called His6-Spc24/Spc25; wild-type Spc24/Spc25 dimer; source: E. coli BL21, purified (Ni-charged IMAC resin, size exclusion chromatography)
For B1, which “mean residence time of Broccoli-GFP on microtubules with a sixtyfold excess of the binder” value is on record?
The value was 3.3 s.
